Active and inactive are the calls of the source. No cut-off for these calls is given here.
Target: T1, Olfactory receptor 51E2 (Homo sapiens) (UniProt Q9H255)
T1 sequence (whole entry): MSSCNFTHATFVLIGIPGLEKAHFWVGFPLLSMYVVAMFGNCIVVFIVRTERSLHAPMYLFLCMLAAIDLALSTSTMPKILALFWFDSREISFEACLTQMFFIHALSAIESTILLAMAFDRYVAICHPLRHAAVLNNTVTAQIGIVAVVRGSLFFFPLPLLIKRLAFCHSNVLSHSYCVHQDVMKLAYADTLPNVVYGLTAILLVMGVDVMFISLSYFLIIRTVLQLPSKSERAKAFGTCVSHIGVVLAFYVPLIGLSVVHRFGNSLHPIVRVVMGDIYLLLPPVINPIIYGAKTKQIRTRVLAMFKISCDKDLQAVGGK
Conditions: LNCaP, 10 uM

SMILES: CC1=C(/C=C/C(C)=C/C=C/C(C)=C\C(=O)O)C(C)(C)CCC1
- inhibition: Active
